This is a selection; strong and weak results do not stand in their true shares. Some structures have more than one record in an assay (separate samples or runs), and their calls can disagree. Activity calls are given as the source filed them. Cut-off read from the data, not from the text of the source: active = growth inhibition above about 70%; inactive = the rest.
Columns and labels:
[1] = NCI Yeast Anticancer Drug Screen. Data for the rad50 strain (AID 155);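 note: 0% = growth of vehicle-only cultures of the same strain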; conditions: S. cerevisiae rad50 strain growth inhibition; at 50.0 µM; hits give high values
[2] = NCI Yeast Anticancer Drug Screen. Data for the mec2-1 strain (AID 157); conditions: S. cerevisiae mec2-1 strain, at 50.0 µM, hits give high values
[3] = NCI Yeast Anticancer Drug Screen. Data for the sgs1 mgt1 strain (AID 161);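 note: 0% = growth of cultures given vehicle only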; conditions: S. cerevisiae sgs1 mgt1 strain, at 50.0 µM, hits give high values
[4] = NCI Yeast Anticancer Drug Screen. Data for the cln2 rad14 strain (AID 165);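 note: 0% = growth equal to vehicle treated cultures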; conditions: S. cerevisiae cln2 rad14 strain, at 50.0 µM, hits give high values
[5] = NCI Yeast Anticancer Drug Screen. Data for the bub3 strain (AID 167); conditions: S. cerevisiae bub3 mutant strain, at 50.0 µM, hits give high values
[6] = NCI Yeast Anticancer Drug Screen. Data for the mlh1 rad18 strain (AID 175); conditions: S. cerevisiae mlh1 rad18 strain growth inhibition; at 50.0 µM; hits give high values

Measured: growth inhibition

O=C(OCc1ccc([N+](=O)[O-])cc1)N(CCCl)CCCl
inactive: [1] 13.2% | [2] -14.2% | [3] 24.3% | [4] 27.4% | [5] 37.7% | [6] 5.85%

Cc1ccc(N[P@]2(Cl)=NP(Cl)(Cl)=N[P@@](Cl)(Nc3ccc(C)cc3)=NP(Cl)(Cl)=N2)cc1
inactive: [1] -1.15% | [2] -3.85% | [3] -5.9% | [4] -6.85% | [5] -2.95% | [6] 0.8%

NC1(C(=O)O)Cc2ccc(N(CCCl)CCCl)cc2C1 (stereo unspecified)
inactive: [1] 0.35% | [2] 31.9% | [3] -4.6% | [4] 4.95% | [5] 7.35% | [6] 46.9%

COC(=O)C(C(=O)OC)C1=NCC(Br)CS1 (stereo unspecified)
inactive: [1] -11.2% | [2] 1.45% | [3] 11.5% | [4] 10.7% | [5] 6.65% | [6] 15.3%

C/C(=N/Nc1ccc([N+](=O)[O-])cc1[N+](=O)[O-])c1ccc([N+](=O)[O-])cc1
inactive: [1] 13.6% | [2] 14.8% | [3] 13.9% | [4] 7.1% | [5] 38.7% | [6] 12.2%

CC1(CCC2(C)N=C(NN=C(CCl)CCl)SP2(=O)Nc2ncccn2)N=C(NN=C(CCl)CCl)SP1(=O)Nc1ncccn1 (stereo unspecified)
inactive: [1] -20.7% | [2] -31.6% | [3] -2.2% | [4] -38.2% | [5] -41.6% | [6] -35.6%

CC(=O)OC[C@]12CC(=O)C(C)=C[C@H]1O[C@@H]1C(=O)[C@@H](OC(C)=O)[C@@]2(C)[C@@]12CO2
inactive: [1] 25.9% | [2] 24.7% | [3] -6.35% | [4] -1.15% | [5] -24.7% | [6] -30.4%

ClCCN1C[C@H]2[C@H]3CC[C@H](C3)[C@@]2(c2ccccc2)C1
inactive: [1] -4.9% | [2] -7.75% | [3] 12.1% | [4] -31.1% | [5] -16.9% | [6] 13.2%

O=C(CSc1ccccn1)c1ccccc1
inactive: [1] 29.4% | [2] 0% | [3] 43.4% | [4] 20.5% | [5] 13.1% | [6] 3.15%

CCN(CC)C(=O)Oc1ccc(/C=N/O)nc1
inactive: [1] -4.6% | [2] -15.5% | [3] -9.7% | [4] 7.05% | [5] -6.2% | [6] -28.8%

CN(C)/C(N)=N/[N+](=O)[O-]
inactive: [1] -0.4% | [2] -7.25% | [3] -39.8% | [4] -19.2% | [5] 0.5% | [6] 0.95%

COc1ccc(N(CCCl)CCCl)cc1OC
inactive: [1] 17.9% | [2] 8.6% | [3] -20.9% | [4] -4% | [5] 2.7% | [6] -55.2%

Fc1ccc(N(CCCl)CCCl)cc1
inactive: [1] 0.95% | [2] -16.6% | [3] -31.8% | [4] -31.6% | [5] -24.8% | [6] -51.9%

O=[N+]([O-])c1ccc(N/N=C\CCCCCC/C=N/Nc2ccc([N+](=O)[O-])cc2[N+](=O)[O-])c([N+](=O)[O-])c1
inactive: [1] 17.1% | [2] -1.7% | [3] -11.4% | [4] 9.85% | [5] -4% | [6] 7%

CCOP(=O)(Nc1nccs1)c1ccc(N)cc1 (stereo unspecified)
inactive: [1] -0.8% | [2] 8.75% | [3] -16.2% | [4] -18.9% | [5] 23.4% | [6] -9.3%

CCCC1OP(N)(=O)OCC1CC (stereo unspecified)
inactive: [1] 1.7% | [2] -8.7% | [3] -0.3% | [4] -1.3% | [5] 2.95% | [6] -0.4%

CC1CC[P+](c2ccccc2)(c2ccccc2)Cc2ccccc21 (stereo unspecified)
inactive: [2] -2.95% | [3] 38% | [4] -3.65% | [5] 30.2% | [6] 21.9%
active: [1] 72%

C/C(=N/Nc1ccc([N+](=O)[O-])cc1[N+](=O)[O-])c1cccc([N+](=O)[O-])c1
inactive: [1] 6.9% | [2] 6.3% | [3] 10.1% | [4] -27.8% | [5] 1.65% | [6] 5.65%

COc1cc(CCNCCCl)cc(OC)c1OC
inactive: [1] 17.6% | [2] -6.5% | [3] -14.1% | [4] -2.95% | [5] 1% | [6] 18.4%

CCCCOP(=S)(Cl)OCCCC
inactive: [1] -5.7% | [2] -0.4% | [3] -10.9% | [4] 34.5% | [5] 8% | [6] -12.3%

CN1C(NC#N)=NP(=O)(O)C1(C)C
inactive: [1] -23.2% | [2] -12.6% | [3] -27.4% | [4] 23.2% | [5] 27.6% | [6] -20.6%

O=C1C(F)=C(NCCCl)C(=O)C(F)=C1NCCCl
inactive: [1] 0.3% | [2] 10.8% | [3] 19% | [4] -7.45% | [5] 24.9% | [6] 14%

Fc1ccc(NC2=NCC(CI)S2)c(F)c1 (stereo unspecified)
inactive: [1] 12.1% | [2] 5.1% | [3] -3.85% | [4] 0.35% | [5] -20.2% | [6] -20.8%

O=C(NP(=O)(N1CCOCC1)N1CCOCC1)N1CCOCC1
inactive: [1] 26.6% | [2] -3.15% | [3] 10.8% | [4] 16.1% | [5] 15.4% | [6] -2.15%

[N-]=[N+]=Nc1ccc([As](=O)(O)O)cc1
inactive: [1] -8.1% | [2] -15.2% | [3] -27.3% | [4] -9.8% | [5] -43.8% | [6] -9.1%

CC(=O)OC1CNP(=O)(N(CCCl)CCCl)OC1 (stereo unspecified)
inactive: [1] 34.1% | [2] 27.2% | [3] 53.5% | [4] 4.1% | [5] 14.2% | [6] 37.4%

C[As](=O)(O)c1cccc(C(=O)O)c1
inactive: [1] -24.4% | [2] -9.95% | [3] -23.2% | [4] -19.6% | [5] -19.2% | [6] 0.6%

CC(Br)CN(CC(C)Br)c1cccc(C(=O)O)c1 (stereo unspecified)
inactive: [1] 11.8% | [2] 4.35% | [3] 9.2% | [4] 5% | [5] 11.3% | [6] 41.7%

C=CCC[P+](C)(c1ccccc1)c1ccccc1
inactive: [1] 38.6% | [2] 42.4% | [3] -2.45% | [4] -35% | [5] -1.4% | [6] -14.1%

Cc1ccc(NC(=S)NP(=O)(Oc2ccccc2)Oc2ccccc2)c(Br)c1
inactive: [1] 28.9% | [2] 11.1% | [3] 55.4% | [4] -7.05% | [5] 0.3% | [6] 50.3%

CC1(C)OC2OC3COP(=O)(N(CCCl)CCCl)OC3C2O1 (stereo unspecified)
inactive: [1] -36.5% | [2] 1.05% | [3] -59.4% | [4] -3.15% | [5] -37.6% | [6] -46%

CCOP(=O)(NC(=S)NNC(=O)c1ccncc1)NC(=S)NNC(=O)c1ccncc1
inactive: [1] 5.3% | [2] 9.7% | [3] 3.5% | [4] 6.55% | [5] -2.35% | [6] -11.6%

CC[P+]1(c2ccccc2)CCC(C)(C)c2ccccc21 (stereo unspecified)
inactive: [1] 14.1% | [2] 30.1% | [3] 2.3% | [4] -16.1% | [5] 3.65% | [6] -1.6%

C[C@@H]1[C@@H](C)[N+]1(C)C
inactive: [1] 5.05% | [2] 4.6% | [3] 12% | [4] 0.95% | [5] 0.35% | [6] 4.05%

N=P(c1ccccc1)(c1ccccc1)c1ccccc1
inactive: [1] 4.35% | [2] 2.45% | [3] -5.3% | [4] -7.55% | [5] -0.85% | [6] 12.4%

ICCN(CCI)c1ccccc1-c1ccccc1
inactive: [1] 12.2% | [2] -3.75% | [3] 21.6% | [4] 30.4% | [5] 4% | [6] 50.7%

O=[N+]([O-])c1cc(Cl)cc([N+](=O)[O-])c1O
inactive: [1] 49.8% | [2] 21.2% | [3] 4.7% | [4] -36.6% | [5] -7.9% | [6] 34.5%

CCC(=O)ON[N+](=O)[O-]
inactive: [1] -11.1% | [2] -0.85% | [3] -11.8% | [4] 7.65% | [5] 11.8% | [6] 4.9%

C/C(CC/C(C)=N\Nc1ccc([N+](=O)[O-])cc1[N+](=O)[O-])=N/Nc1ccc([N+](=O)[O-])cc1[N+](=O)[O-]
inactive: [1] -21.6% | [2] -3.75% | [3] -2.55% | [4] -5.45% | [5] -0.15% | [6] -27.1%

O=[As]c1ccc(NC(=O)c2ccccc2)cc1 (stereo unspecified)
inactive: [1] 5% | [2] 5.2% | [3] 8.7% | [4] -33% | [5] 6.25% | [6] 18.6%

CC(C)(C(=O)c1cc([N+](=O)[O-])cc([N+](=O)[O-])c1)c1cc([N+](=O)[O-])cc([N+](=O)[O-])c1
inactive: [1] -2% | [2] 25.6% | [3] 3.25% | [4] 16.8% | [5] 1.1% | [6] 8.05%
